Literature values, collected in patent publication US20070014866A1, “Composition for improving the efficacy and reducing the side effects of omega 3 fatty acids, fish oils and cardiovascular and diabetic treatments” (priority 2005, published 2007).

Assays:
[1] = human, in vivo
[2] = 900 mg pantethine daily, preferably 300 mg three times daily; versus placebo; diabetic and non-diabetic individuals

CC(C)(CO)[C@@H](O)C(=O)NCCC(=O)NCCSSCCNC(=O)CCNC(=O)[C@H](O)C(C)(C)CO [pantethine, Pantethine]
adverse side effects [1]: without adverse side effects
cholesterol and triglyceride levels [1]: lower cholesterol and triglyceride levels
lowering total cholesterol levels in the blood [2]: significantly more effective than placebo
lowering trigylceride levels in the blood [2]: significantly more effective than placebo
